Measured values as given in PubChem BioAssay (NCI).
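Exposure lasted 48 hours, with cells grown in 96-well plates and compounds tested at five concentrations. TGI is the concentration that stops growth completely.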

Key:
Experiment in all cases: NCI-60 cell line screen, 48 h
786-0 renal = system: 786-0 renal
A498 renal = system: A498 renal
A549 NSCLC = system: A549 NSCLC
ACHN renal = system: ACHN renal
CAKI-1 renal = system: CAKI-1 renal
CCRF-CEM leukemia = system: CCRF-CEM leukemia
COLO 205 colon = system: COLO 205 colon
DU-145 prostate = system: DU-145 prostate
EKVX NSCLC = system: EKVX NSCLC
HCC-2998 colon = system: HCC-2998 colon
HCT-116 colon = system: HCT-116 colon
HCT-15 colon = system: HCT-15 colon
HL-60(TB) leukemia = system: HL-60(TB) leukemia
HOP-92 NSCLC = system: HOP-92 NSCLC
HS 578T breast = system: HS 578T breast
HT29 colon = system: HT29 colon
IGROV1 ovarian = system: IGROV1 ovarian
K-562 leukemia = system: K-562 leukemia
KM12 colon = system: KM12 colon
LOX IMVI melanoma = system: LOX IMVI melanoma
M14 melanoma = system: M14 melanoma
MALME-3M melanoma = system: MALME-3M melanoma
MCF7 breast = system: MCF7 breast
MDA-MB-231 breast = system: MDA-MB-231 breast
MDA-MB-435 = system: MDA-MB-435
MDA-N = system: MDA-N
MOLT-4 leukemia = system: MOLT-4 leukemia
NCI-H226 lung = system: NCI-H226 lung
NCI-H23 lung = system: NCI-H23 lung
NCI-H322M lung = system: NCI-H322M lung
NCI-H460 lung = system: NCI-H460 lung
NCI-H522 lung = system: NCI-H522 lung
NCI/ADR-RES ovarian = system: NCI/ADR-RES ovarian
OVCAR-3 ovarian = system: OVCAR-3 ovarian
OVCAR-4 ovarian = system: OVCAR-4 ovarian
OVCAR-5 ovarian = system: OVCAR-5 ovarian
OVCAR-8 ovarian = system: OVCAR-8 ovarian
PC-3 prostate = system: PC-3 prostate
RPMI-8226 leukemia = system: RPMI-8226 leukemia
RXF 393 renal = system: RXF 393 renal
SF-268 CNS = system: SF-268 CNS
SF-295 CNS = system: SF-295 CNS
SF-539 CNS = system: SF-539 CNS
SK-MEL-2 melanoma = system: SK-MEL-2 melanoma
SK-MEL-28 melanoma = system: SK-MEL-28 melanoma
SK-MEL-5 melanoma = system: SK-MEL-5 melanoma
SK-OV-3 ovarian = system: SK-OV-3 ovarian
SN12C renal = system: SN12C renal
SNB-19 CNS = system: SNB-19 CNS
SNB-75 CNS = system: SNB-75 CNS
SR leukemia = system: SR leukemia
SW-620 colon = system: SW-620 colon
T-47D breast = system: T-47D breast
TK-10 renal = system: TK-10 renal
U251 CNS = system: U251 CNS
UACC-257 melanoma = system: UACC-257 melanoma
UACC-62 melanoma = system: UACC-62 melanoma
UO-31 renal = system: UO-31 renal

Which TGI (786-0 renal) does the source give for `NP(=O)(OCc1ccc([N+](=O)[O-])o1)N(CCBr)CCBr` (stereo not drawn) here?
The TGI was 3.09 µM.

What about the TGI (A498 renal) of the same molecule?
Its TGI is 3.14 µM.

What about the TGI (A549 NSCLC) of the same molecule?
Its TGI is 6.32 µM.

And the TGI (ACHN renal)?
Its TGI is 3.64 µM.

And the TGI (CAKI-1 renal)?
Its TGI is 2.66 µM.

What about the TGI (CCRF-CEM leukemia) of the same molecule?
Its TGI is 10.3 µM.

And the TGI (COLO 205 colon)?
The TGI was 10.7 µM.

And the TGI (DU-145 prostate)?
Its TGI is 13.9 µM.

What about the TGI (EKVX NSCLC) of the same molecule?
The TGI was 9.08 µM.

What about the TGI (HCC-2998 colon) of the same molecule?
The TGI was 2.04 µM.

What about the TGI (HCT-116 colon) of the same molecule?
Its TGI is 10.3 µM.

What about the TGI (HCT-15 colon) of the same molecule?
Its TGI is 2.74 µM.

What about the TGI (HL-60(TB) leukemia) of the same molecule?
Its TGI is 0.201 µM.

What about the TGI (HOP-92 NSCLC) of the same molecule?
Its TGI is 9.33 µM.

And the TGI (HS 578T breast)?
The TGI was 17.2 µM.

What about the TGI (HT29 colon) of the same molecule?
Its TGI is 4 µM.

And the TGI (IGROV1 ovarian)?
Its TGI is 2.9 µM.

And the TGI (K-562 leukemia)?
The TGI was 33.2 µM.

And the TGI (KM12 colon)?
Its TGI is 4.84 µM.

And the TGI (LOX IMVI melanoma)?
Its TGI is 3.08 µM.

And the TGI (M14 melanoma)?
Its TGI is 8.79 µM.

And the TGI (MALME-3M melanoma)?
Its TGI is 2.52 µM.

And the TGI (MCF7 breast)?
The TGI was 3.95 µM.

What about the TGI (MDA-MB-231 breast) of the same molecule?
The TGI was 29.4 µM.

What about the TGI (MDA-MB-435) of the same molecule?
The TGI was 6.85 µM.

And the TGI (MDA-N)?
Its TGI is 11.4 µM.

And the TGI (MOLT-4 leukemia)?
The TGI was 1.26 µM.

What about the TGI (NCI-H226 lung) of the same molecule?
Its TGI is 8.23 µM.

What about the TGI (NCI-H23 lung) of the same molecule?
Its TGI is 2.15 µM.

What about the TGI (NCI-H322M lung) of the same molecule?
The TGI was 30.4 µM.

And the TGI (NCI-H460 lung)?
The TGI was 1.72 µM.

What about the TGI (NCI-H522 lung) of the same molecule?
Its TGI is 2.1 µM.

And the TGI (NCI/ADR-RES ovarian)?
The TGI was 13.3 µM.

What about the TGI (OVCAR-3 ovarian) of the same molecule?
The TGI was 7.27 µM.

What about the TGI (OVCAR-4 ovarian) of the same molecule?
The TGI was 3.98 µM.

And the TGI (OVCAR-5 ovarian)?
Its TGI is 7.35 µM.

And the TGI (OVCAR-8 ovarian)?
Its TGI is 2.69 µM.

And the TGI (PC-3 prostate)?
Its TGI is 15.8 µM.

And the TGI (RPMI-8226 leukemia)?
Its TGI is 24.3 µM.

What about the TGI (RXF 393 renal) of the same molecule?
The TGI was 3.96 µM.

And the TGI (SF-268 CNS)?
The TGI was 6.3 µM.

And the TGI (SF-295 CNS)?
The TGI was 8.13 µM.

What about the TGI (SF-539 CNS) of the same molecule?
The TGI was 5.85 µM.

And the TGI (SK-MEL-2 melanoma)?
Its TGI is 12 µM.

What about the TGI (SK-MEL-28 melanoma) of the same molecule?
The TGI was 29.3 µM.

What about the TGI (SK-MEL-5 melanoma) of the same molecule?
Its TGI is 2.88 µM.

What about the TGI (SK-OV-3 ovarian) of the same molecule?
The TGI was 20.3 µM.

What about the TGI (SN12C renal) of the same molecule?
Its TGI is 17.7 µM.

What about the TGI (SNB-19 CNS) of the same molecule?
The TGI was 20.8 µM.

And the TGI (SNB-75 CNS)?
The TGI was 3.06 µM.

What about the TGI (SR leukemia) of the same molecule?
Its TGI is 0.362 µM.

What about the TGI (SW-620 colon) of the same molecule?
The TGI was 23.6 µM.

What about the TGI (T-47D breast) of the same molecule?
The TGI was 21.4 µM.

What about the TGI (TK-10 renal) of the same molecule?
Its TGI is 14.2 µM.

And the TGI (U251 CNS)?
The TGI was 7.58 µM.

What about the TGI (UACC-257 melanoma) of the same molecule?
The TGI was 4.42 µM.

What about the TGI (UACC-62 melanoma) of the same molecule?
The TGI was 2.38 µM.

And the TGI (UO-31 renal)?
The TGI was 2.54 µM.
